Experiment [1] has as its target T1, human AGT mutant P140A (Homo sapiens, UniProt P16455, P140A).
T1 construct: expressed in transfected cells; host or cells: Chinese hamster ovary (CHO) cells
T1 sequence (P16455 1-207 P140A): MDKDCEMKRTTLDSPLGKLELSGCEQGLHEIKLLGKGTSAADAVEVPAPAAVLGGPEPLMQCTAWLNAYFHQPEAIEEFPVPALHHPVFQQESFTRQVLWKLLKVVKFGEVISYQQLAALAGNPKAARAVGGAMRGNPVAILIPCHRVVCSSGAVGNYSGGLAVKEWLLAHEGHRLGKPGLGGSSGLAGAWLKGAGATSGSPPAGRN
Nature of the experiment: Inactivation of cellular AGT in CHO cells expressing mutant P140A (CHO-P140A). The format is cell-based. How it is done: (§1) FIG. 3a and FIG. 3b show a loss of AGT activity after exposure to different concentrations of BG (FIG. 3a) and 5-nitroso-BP (FIG. 3b). CHO cells expressing human AGT (.smallcircle.) and its mutants P140A (.circle-solid.) and G156A (.quadrature.) were exposed to BG or 5-nitroso-BP for 4 h. The cells were then harvested and the AGT activity determined.
(§2) AGT activity assays--Extracts were prepared and AGT activity was determined as described by Dolan et al. (Dolan, et al., 1990, Proc. Natl. Acad. Sci. U.S.A. 87: 5368-5372) by incubation for 30 min at 37° C. with a [^3 H]methylated calf thymus DNA substrate prepared by reaction of DNA with N-[^3 H]methyl-N-nitrosourea (Amersham Inc., Arlington Hts., Ill.). The AGT activity of the cells was then expressed as fmol of O^6 -methylguanine removed per mg of protein present in the cell extracts. Protein was determined by the method of Bradford (Bradford, 1976, Anal. Biochem. 72: 248-254). Inactivation of cellular AGT was measured by adding different concentrations of BG or 5-nitroso-BP to cell cultures which had reached about 80% confluence. After 4 h exposure, the cells were harvested and washed with PBS. Cell pellets were stored at -80° C. until assayed. Extracts were then prepared and AGT activity determined. The results were expressed as the percentage of the AGT activity present in cultures to which no drug was added.

The target in experiment [2] is T2, AGT (Homo sapiens, UniProt P16455).
T2 sequence (P16455 1-207): T1 sequence (P16455 1-207 P140A) with A140P
Description: Inactivation of cellular AGT in CHO cells expressing human AGT (CHO-AGT). It is filed as cell-based. On the set-up: expressed in transfected cells; host or cells: Chinese hamster ovary (CHO) cells. The method, then:
as §1, §2

The target of experiment [3] is T3, wtAGT (Homo sapiens, UniProt P16455).
T3 sequence (P16455 1-207): T1 sequence (P16455 1-207 P140A) with A140P
Nature of the experiment: BG inactivation of AGT in wtMGMT transduced K562 cells.

In experiment [4] the target is T4, human AGT mutant G156A (Homo sapiens, UniProt P16455, G156A).
T4 construct: expressed in transfected cells; host or cells: Chinese hamster ovary (CHO) cells
T4 sequence (P16455 1-207 G156A): T1 sequence (P16455 1-207 P140A) with A140P, G156A
Description: Inactivation of cellular AGT in CHO cells expressing mutant G156A (CHO-G156A). It is filed as cell-based. How it is done: as §1, §2

For experiment [5], the target named is T3, wtAGT. Description: BG inhibition of AGT in wtMGMT transfected CHO cells. It is filed as cell-based. On the set-up: expressed in transfected cells; host or cells: K562 (human chronic myelogenous leukemia), retrovirally transduced.
In experiment [6] the target is T5, ΔAGT (G156A) (Homo sapiens, UniProt P16455, G156A).
T5 sequence (P16455 1-207 G156A): T1 sequence (P16455 1-207 P140A) with A140P, G156A
Nature of the experiment: cell-based.

Numbering of substitutions follows the chain as printed.

These results are taken from patent US5965126A, “use of mutant alkyltransferases for gene therapy to protect from toxicity of therapeutic alkylating agents” (priority 1996, dated 1999).

Usually IC50 stands for the midpoint of a concentration-inhibition curve.

On to `Nc1nc(OCc2ccccc2)c2[nH]cnc2n1` [BG, O^6 -benzylguanine], for which the half-maximal inhibitory concentration (IC50) in experiment [1] was 15 µM; in experiment [2], 0.5 µM; in experiment [3], less than 0.1 µM; in experiment [4] it was 30 µM; in experiment [5] it was less than 0.1 µM; in experiment [6], roughly 18 µM.
